According to PubChem BioAssay AID1645851 (National Center for Advancing Translational Sciences (NCATS), 2021):
Only a part is listed here, and it is no random draw. Active and inactive are the calls of the source. Cut-off read from the data, not from the text of the source: active = activity change below about -25%; inactive = the rest.

Chains of the proteins cited; added tags and fusions are not shown.
UniProt Q92551, whole entry: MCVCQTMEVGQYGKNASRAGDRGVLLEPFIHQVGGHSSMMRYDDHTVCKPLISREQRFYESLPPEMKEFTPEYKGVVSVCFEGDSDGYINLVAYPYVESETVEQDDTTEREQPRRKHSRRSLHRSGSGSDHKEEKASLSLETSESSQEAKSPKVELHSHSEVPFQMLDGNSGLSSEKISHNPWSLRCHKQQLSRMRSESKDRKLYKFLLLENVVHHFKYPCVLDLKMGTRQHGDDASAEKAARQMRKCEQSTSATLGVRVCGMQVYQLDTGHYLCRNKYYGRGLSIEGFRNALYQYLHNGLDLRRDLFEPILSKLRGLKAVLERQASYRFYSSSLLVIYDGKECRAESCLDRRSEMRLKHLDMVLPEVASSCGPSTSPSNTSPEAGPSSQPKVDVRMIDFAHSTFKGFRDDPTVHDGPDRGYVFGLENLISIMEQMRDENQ

Target: Inositol hexakisphosphate kinase 1 (Homo sapiens) (UniProt Q92551)
Experiment: Primary qHTS assay for small molecule inhibitors of Inositol hexaphosphate kinase 1 (IP6K1); note: series mostly up to about 58 µM
Conditions: ADP-Glo luminescence, 2 h, active compounds read low
From the text: Assay Provider: Huijun Wei, M.S., Ph.D. School of Medicine, Johns Hopkins University, Baltimore, MD Inositol hexakisphosphate kinases (IP6Ks) catalyze pyrophosphorylation of inositol hexakisphosphate (IP6) into inositol 5-diphospho-1,2,3,4,6-pentakisphosphate (IP7), which is involved in numerous areas of cell physiology including glucose homeostasis, blood coagulation and neurological development. Inhibition of IP6Ks may be effective for the treatment of Type II diabetes, thrombosis, and psychiatric disorders. We performed a quantitative high throughput screen (qHTS) of 158,410 compounds for IP6K1 inhibitors using ankinase activity ADP-Glo Max assay. […] Medicinal chemistry SAR efforts in three chemical series identified potent IP6K1 inhibitors, which were further validated in an orthogonal LC-MS IP7 analysis.
PROTOCOL TABLE SEQUENCE No. (e.g., 1, 2, 3, etc.); […] (e.g., Cells, Incubation, Reagent, etc.); VALUE and DESCRIPTION. 1. Reagent, 3 uL of 1.3 mM ATP and 130 uM IP6 mixture in assay buffer was dispensed to a white, 1536-well assay plate. 2. Compound, 23 nL of compounds of the top two doses (57.5 uM and 19.1 uM final concentration) of the libraries were dispensed into the mixture using the Kalypsis pintool. 3. Reagent, 1 uL of 2.4 uM IP6K1 was dispensed to the assay plates. 4. Incubation, 2 hr incubation at room temperature. 5. Reagent, 2 uL of ADP-Glo reagent was added to the wells. 6. Incubation, 1 hr incubation at room temperature. 7. Reagent, 4 uL or ADP-Glo substate was added to the wells. 8. Incubation, 45 min incubation at room temperature. 9. Detection, luminescence signal was detected using the ViewLux microplate imager (PerkinElmer).
% is set by controls: 0 for no effect and ±100 for the full control effect.

Row | Compound | activity change
1 | CN(CCCl)CCCl | inactive: 5.69%
2 | CCC(=O)N(c1ccccc1)C1(COC)CCN(CCn2nnn(CC)c2=O)CC1 | inactive: -10.9%
3 | CCC(=O)N(c1ccccc1)C1(COC)CCN(CCc2cccs2)CC1 | inactive: -24.4%
